One compound from publication PMC12072147, “Antioxidant and Neuroprotective Properties of Selected Pyrrole-Containing Azomethine Compounds in Neurotoxicity Models In Vitro” (International Journal of Molecular Sciences, 2025) can be followed below.

This data set has as its system isolated brain mitochondria. As to the kind of experiment: t-BuOOH-induced oxidative stress in brain mitochondria. Conditions: 75 µM alone, vs control untreated mitochondria.

For the compound `CC(C)(C)OO`, the “increase in MDA production by toxic agent alone” value worked out at 209% and the “reduction in GSH levels by toxic agent alone” value was 50%.
